Laboratory results reported in patent EP4772509A1, “KINESIN KIF18A INHIBITOR, AND APPLICATION THEREOF” (Shanghai Apeiron Therapeutics Company Limited, priority 2023, dated 2025).

Target: T1, Human KIF18A (amino acid sequence 1-417) (Homo sapiens, UniProt Q8NI77)
T1 construct: purchased Viva Biotech (Shanghai) Ltd
T1 sequence (Q8NI77 1-417): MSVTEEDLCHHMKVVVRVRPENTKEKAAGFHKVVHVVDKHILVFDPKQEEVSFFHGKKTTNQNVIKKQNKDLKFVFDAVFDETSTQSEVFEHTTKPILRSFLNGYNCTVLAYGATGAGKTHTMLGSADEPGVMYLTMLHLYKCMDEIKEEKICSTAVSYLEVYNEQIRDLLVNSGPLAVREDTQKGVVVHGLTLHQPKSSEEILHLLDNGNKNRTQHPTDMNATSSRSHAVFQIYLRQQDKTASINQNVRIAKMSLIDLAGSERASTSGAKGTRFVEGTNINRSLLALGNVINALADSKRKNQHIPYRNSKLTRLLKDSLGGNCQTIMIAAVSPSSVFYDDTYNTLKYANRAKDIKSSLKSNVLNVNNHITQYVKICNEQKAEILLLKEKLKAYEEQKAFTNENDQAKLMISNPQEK
Experiment: Enzymatic activity test (ADP-Glo, microtubule-stimulated ATPase)
Type: biochemical
Conditions: KIF18A IC50 nM, 60 µg/mL microtubules, 25 µM ATP, 2.5 nM KIF18A protein, 120 min at ambient temperature, chemiluminescence
Experimental: Materials: Human KIF18A (amino acid sequence 1-417) was purchased from Viva Biotech (Shanghai) Ltd.; the ADP-Glo™ protein kinase kit was acquired from Promega, USA; tubulin was sourced from Cytoskeleton, USA; and the 384-well assay plate and Envision multifunctional microplate reader were obtained from PerkinElmer, USA.
Enzymatic Activity Test: The compound powder was dissolved in DMSO to prepare a stock solution of 10 mM. Then gradient dilution was performed for the compounds in the microplate to achieve a final concentration of 0-10 µM. Then, 2.5 µL each of tubulin, compound, ATP, and KIF18A protein were added to the microplate in sequence for reaction at ambient temperature for 120 min. The final concentrations in the enzyme reaction were 60 µg/mL for microtubules, 25 µM for ATP, and 2.5 nM for KIF18A protein. After the enzyme reaction, 10 µL of ADP-GLO reaction reagent was added to each well and incubated at room temperature for 30 min. After that, 20 µL of detection reagent was added to each well and incubated at room temperature for 30 min in the dark. Finally, chemiluminescence detection was performed using the PerkinElmer Envision.

Cc1cc2nc(n1)N1CCC(F)(F)C(/C=C/CC3CCN(CC3)c3cc(NS(=O)(=O)CCO)c(C(=O)N(C)C)cc3-n3cc-2nn3)C1 (stereo not shown) [Example 93, (3^4Z,7E)-1^4,1^4-difluoro-4^4-((2-hydroxyethyl)sulfonamido)-2^6-methyl-3^1H-2(2,4)-pyrimidin-1(1,3),5(1,4)-dipiperidin-3(4,1)-triazole-4(1,2)-benzocyclooct-7-en-4^5carboxamide]
IC50: 45 nM
